Measurements from patent US6610824B2 (Amylin Pharmaceuticals, Inc., priority 1991, dated 2003).

Molecular target: T1, amylin receptors (Rattus norvegicus, UniProt P32214)
T1 construct: This basal forebrain tissue, containing the nucleus accumbens and surrounding regions, was weighed and homogenized; from tissue; host or cells: rat basal forebrain (nucleus accumbens and surrounding regions) membranes
T1 sequence (P32214 25-516): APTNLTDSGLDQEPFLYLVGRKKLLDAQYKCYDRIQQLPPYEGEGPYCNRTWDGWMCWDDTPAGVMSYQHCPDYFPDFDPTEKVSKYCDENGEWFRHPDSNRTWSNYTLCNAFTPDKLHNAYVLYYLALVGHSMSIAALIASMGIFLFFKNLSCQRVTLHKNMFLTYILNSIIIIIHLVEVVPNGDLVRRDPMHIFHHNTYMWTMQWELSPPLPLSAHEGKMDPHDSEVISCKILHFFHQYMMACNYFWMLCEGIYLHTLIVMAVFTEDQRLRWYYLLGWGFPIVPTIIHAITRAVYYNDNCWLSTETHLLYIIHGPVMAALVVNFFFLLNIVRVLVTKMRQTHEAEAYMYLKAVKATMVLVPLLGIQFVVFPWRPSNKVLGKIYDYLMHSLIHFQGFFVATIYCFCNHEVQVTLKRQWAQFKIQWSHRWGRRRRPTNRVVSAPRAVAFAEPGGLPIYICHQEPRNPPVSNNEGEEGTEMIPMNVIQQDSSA
T1 sequence (Q9JJ74 27-148 partner): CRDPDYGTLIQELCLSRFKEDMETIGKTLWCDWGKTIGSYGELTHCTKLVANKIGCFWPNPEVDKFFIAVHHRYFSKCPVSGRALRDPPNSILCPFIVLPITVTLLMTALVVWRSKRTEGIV
Test: Receptor binding assay (125I-rat amylin competition, rat basal forebrain membranes)
Conditions: competition with 125I-rat amylin at 12-16 pM
Excerpt: Unlabeled peptides were obtained from BACHEM Inc. (Torrance, Calif.) and Peninsula Laboratories (Belmont, Calif.).
Male Sprague-Dawley rats (200-250) grams were sacrificed by decapitation. Brains were removed to cold phosphate-buffered saline (PBS). From the ventral surface, cuts were made rostral to the hypothalamus, bounded laterally by the olfactory tracts and extending at a 45Ε angle medially from these tracts. This basal forebrain tissue, containing the nucleus accumbens and surrounding regions, was weighed and homogenized in ice-cold 20 mM HEPES buffer (20 mM HEPES acid, pH adjusted to 7.4 with NaOH at 23ΕC). […] The final membrane pellet was resuspended in 20 mM HEPES buffer containing 0.2 mM phenylmethylsulfonyl fluoride (PMSF).
Solutions were incubated for 60 minutes at 2ΕC. […] Filters were washed immediately before filtration with 5 ml cold PBS, and immediately after filtration with 15 ml cold PBS.

| IC50 | Structure (SMILES) |
| --- | --- |
| 0.015 nM | CC[C@H](C)[C@H](NC(=O)[C@H](C)NC(=O)CNC(=O)[C@H](Cc1ccccc1)NC(=O)[C@H](CC(N)=O)NC(=O)[C@H](CC(N)=O)NC(=O)[C@H](CO)NC(=O)[C@H](CO)NC(=O)[C@H](Cc1c[nH]cn1)NC(=O)[C@@H](NC(=O)[C@H](CC(C)C)NC(=O)[C@H](Cc1ccccc1)NC(=O)[C@H](CC(N)=O)NC(=O)[C@H](C)NC(=O)[C@H](CC(C)C)NC(=O)[C@H](CCCNC(=N)N)NC(=O)[C@H](CCC(N)=O)NC(=O)[C@@H](NC(=O)[C@H](C)NC(=O)[C@@H]1CSSC[C@H](NC(=O)[C@@H](N)CCCCN)C(=O)N[C@@H](CC(N)=O)C(=O)N[C@@H]([C@@H](C)O)C(=O)N[C@@H](C)C(=O)N[C@@H]([C@@H](C)O)C(=O)N1)[C@@H](C)O)C(C)C)C(=O)N[C@@H](CC(C)C)C(=O)N1CCC[C@H]1C(=O)N[C@@H](CO)C(=O)N[C@H](C(=O)N[C@@H](CC(N)=O)C(=O)N[C@H](C(=O)NCC(=O)N[C@@H](CO)C(=O)N[C@@H](CC(N)=O)C(=O)N[C@H](C(=O)N[C@@H](Cc1ccc(O)cc1)C(N)=O)[C@@H](C)O)C(C)C)[C@@H](C)O [Example 1, ^28Pro-human-Amylin] |
| 0.148 nM | CC[C@H](C)[C@H](NC(=O)[C@H](C)NC(=O)CNC(=O)[C@H](Cc1ccccc1)NC(=O)[C@H](CC(N)=O)NC(=O)[C@H](CC(N)=O)NC(=O)[C@H](CO)NC(=O)[C@H](CO)NC(=O)[C@H](Cc1c[nH]cn1)NC(=O)[C@@H](NC(=O)[C@H](CC(C)C)NC(=O)[C@H](Cc1ccccc1)NC(=O)[C@H](CC(N)=O)NC(=O)[C@H](C)NC(=O)[C@H](CC(C)C)NC(=O)[C@H](CCCNC(=N)N)NC(=O)[C@H](CCC(N)=O)NC(=O)[C@@H](NC(=O)[C@H](C)NC(=O)[C@@H]1CSSC[C@H](NC(=O)[C@H](C)N)C(=O)N[C@@H](CC(N)=O)C(=O)N[C@@H]([C@@H](C)O)C(=O)N[C@@H](C)C(=O)N[C@@H]([C@@H](C)O)C(=O)N1)[C@@H](C)O)C(C)C)C(=O)N[C@@H](CC(C)C)C(=O)N[C@@H](CO)C(=O)N[C@@H](CO)C(=O)N[C@H](C(=O)N[C@@H](CC(N)=O)C(=O)N[C@H](C(=O)NCC(=O)N[C@@H](CO)C(=O)N[C@@H](CC(N)=O)C(=O)N[C@H](C(=O)N[C@@H](Cc1ccc(O)cc1)C(N)=O)[C@@H](C)O)C(C)C)[C@@H](C)O [Example 5, ^1Ala-h-Amylin] |
| 0.064 nM | CC[C@H](C)[C@H](NC(=O)[C@H](C)NC(=O)CNC(=O)[C@H](Cc1ccccc1)NC(=O)[C@H](CC(N)=O)NC(=O)[C@H](CC(N)=O)NC(=O)[C@H](CO)NC(=O)[C@H](CO)NC(=O)[C@H](Cc1c[nH]cn1)NC(=O)[C@@H](NC(=O)[C@H](CC(C)C)NC(=O)[C@H](Cc1ccccc1)NC(=O)[C@H](CC(N)=O)NC(=O)[C@H](C)NC(=O)[C@H](CC(C)C)NC(=O)[C@H](CCCNC(=N)N)NC(=O)[C@H](CCC(N)=O)NC(=O)[C@@H](NC(=O)[C@H](C)NC(=O)[C@@H]1CSSC[C@H](NC(=O)[C@@H](N)CCCCN)C(=O)N[C@@H](CC(N)=O)C(=O)N[C@@H]([C@@H](C)O)C(=O)N[C@@H](C)C(=O)N[C@@H]([C@@H](C)O)C(=O)N1)[C@@H](C)O)C(C)C)C(=O)N[C@@H](CC(C)C)C(=O)N[C@@H](CO)C(=O)N1CCC[C@H]1C(=O)N[C@H](C(=O)N[C@@H](CC(N)=O)C(=O)N[C@H](C(=O)NCC(=O)N[C@@H](CO)C(=O)N[C@@H](CC(N)=O)C(=O)N[C@H](C(=O)N[C@@H](Cc1ccc(O)cc1)C(N)=O)[C@@H](C)O)C(C)C)[C@@H](C)O [Example 7, ^29Pro-h-Amylin] |
| 0.026 nM | CC[C@H](C)[C@H](NC(=O)[C@@H]1CCCN1C(=O)CNC(=O)[C@H](Cc1ccccc1)NC(=O)[C@H](CC(N)=O)NC(=O)[C@H](CC(N)=O)NC(=O)[C@H](CO)NC(=O)[C@H](CO)NC(=O)[C@H](Cc1c[nH]cn1)NC(=O)[C@@H](NC(=O)[C@H](CC(C)C)NC(=O)[C@H](Cc1ccccc1)NC(=O)[C@H](CC(N)=O)NC(=O)[C@H](C)NC(=O)[C@H](CC(C)C)NC(=O)[C@H](CCCNC(=N)N)NC(=O)[C@H](CCC(N)=O)NC(=O)[C@@H](NC(=O)[C@H](C)NC(=O)[C@@H]1CSSC[C@H](NC(=O)[C@@H](N)CCCCN)C(=O)N[C@@H](CC(N)=O)C(=O)N[C@@H]([C@@H](C)O)C(=O)N[C@@H](C)C(=O)N[C@@H]([C@@H](C)O)C(=O)N1)[C@@H](C)O)C(C)C)C(=O)N[C@@H](CC(C)C)C(=O)N1CCC[C@H]1C(=O)N[C@@H](CO)C(=O)N[C@H](C(=O)N[C@@H](CC(N)=O)C(=O)N[C@H](C(=O)NCC(=O)N[C@@H](CO)C(=O)N[C@@H](CC(N)=O)C(=O)N[C@H](C(=O)N[C@@H](Cc1ccc(O)cc1)C(N)=O)[C@@H](C)O)C(C)C)[C@@H](C)O [Example 8, ^25, 28Pro-h-Amylin] |
| 0.085 nM | CC[C@H](C)[C@H](NC(=O)[C@@H]1CCCN1C(=O)CNC(=O)[C@H](Cc1ccccc1)NC(=O)[C@H](CC(N)=O)NC(=O)[C@H](CC(N)=O)NC(=O)[C@H](CO)NC(=O)[C@H](CO)NC(=O)[C@H](Cc1c[nH]cn1)NC(=O)[C@@H](NC(=O)[C@H](CC(C)C)NC(=O)[C@H](Cc1ccccc1)NC(=O)[C@H](CC(N)=O)NC(=O)[C@H](C)NC(=O)[C@H](CC(C)C)NC(=O)[C@H](CCCNC(=N)N)NC(=O)[C@H](CCC(N)=O)NC(=O)[C@@H](NC(=O)[C@H](C)NC(=O)[C@@H]1CSSC[C@H](N)C(=O)N[C@@H](CC(N)=O)C(=O)N[C@@H]([C@@H](C)O)C(=O)N[C@@H](C)C(=O)N[C@@H]([C@@H](C)O)C(=O)N1)[C@@H](C)O)C(C)C)C(=O)N[C@@H](CC(C)C)C(=O)N1CCC[C@H]1C(=O)N[C@@H](CO)C(=O)N[C@H](C(=O)N[C@@H](CC(N)=O)C(=O)N[C@H](C(=O)NCC(=O)N[C@@H](CO)C(=O)N[C@@H](CC(N)=O)C(=O)N[C@H](C(=O)N[C@@H](Cc1ccc(O)cc1)C(N)=O)[C@@H](C)O)C(C)C)[C@@H](C)O [Example 9, des-^1Lys^25, 28Pro-h-Amylin] |
| 0.021 nM | CC[C@H](C)[C@H](NC(=O)[C@@H]1CCCN1C(=O)CNC(=O)[C@H](Cc1ccccc1)NC(=O)[C@H](CC(N)=O)NC(=O)[C@H](CC(N)=O)NC(=O)[C@H](CO)NC(=O)[C@H](CO)NC(=O)[C@H](CCCNC(=N)N)NC(=O)[C@@H](NC(=O)[C@H](CC(C)C)NC(=O)[C@H](Cc1ccccc1)NC(=O)[C@H](CC(N)=O)NC(=O)[C@H](C)NC(=O)[C@H](CC(C)C)NC(=O)[C@H](CCCNC(=N)N)NC(=O)[C@H](CCC(N)=O)NC(=O)[C@@H](NC(=O)[C@H](C)NC(=O)[C@@H]1CSSC[C@H](NC(=O)[C@@H](N)CCCCN)C(=O)N[C@@H](CC(N)=O)C(=O)N[C@@H]([C@@H](C)O)C(=O)N[C@@H](C)C(=O)N[C@@H]([C@@H](C)O)C(=O)N1)[C@@H](C)O)C(C)C)C(=O)N[C@@H](CC(C)C)C(=O)N1CCC[C@H]1C(=O)N1CCC[C@H]1C(=O)N[C@H](C(=O)N[C@@H](CC(N)=O)C(=O)N[C@H](C(=O)NCC(=O)N[C@@H](CO)C(=O)N[C@@H](CC(N)=O)C(=O)N[C@H](C(=O)N[C@@H](Cc1ccc(O)cc1)C(N)=O)[C@@H](C)O)C(C)C)[C@@H](C)O [Example 12, ^18Arg^25, 28, 29Pro-h-Amylin] |

| Structure (SMILES) | IC50 |
| --- | --- |
| CC[C@H](C)[C@H](NC(=O)[C@H](C)NC(=O)CNC(=O)[C@H](Cc1ccccc1)NC(=O)[C@H](CC(N)=O)NC(=O)[C@H](CC(N)=O)NC(=O)[C@H](CO)NC(=O)[C@H](CO)NC(=O)[C@H](Cc1c[nH]cn1)NC(=O)[C@@H](NC(=O)[C@H](CC(C)C)NC(=O)[C@H](Cc1ccccc1)NC(=O)[C@H](CC(N)=O)NC(=O)[C@H](C)NC(=O)[C@H](CC(C)C)NC(=O)[C@H](CCCNC(=N)N)NC(=O)[C@H](CCC(N)=O)NC(=O)[C@@H](NC(=O)[C@H](C)NC(=O)[C@@H]1CSSC[C@H](NC(=O)[C@@H](N)CO)C(=O)N[C@@H](CC(N)=O)C(=O)N[C@@H]([C@@H](C)O)C(=O)N[C@@H](C)C(=O)N[C@@H]([C@@H](C)O)C(=O)N1)[C@@H](C)O)C(C)C)C(=O)N[C@@H](CC(C)C)C(=O)N[C@@H](CO)C(=O)N[C@@H](CO)C(=O)N[C@H](C(=O)N[C@@H](CC(N)=O)C(=O)N[C@H](C(=O)NCC(=O)N[C@@H](CO)C(=O)N[C@@H](CC(N)=O)C(=O)N[C@H](C(=O)N[C@@H](Cc1ccc(O)cc1)C(N)=O)[C@@H](C)O)C(C)C)[C@@H](C)O [Example 6, ^1Ser-h-Amylin] | 0.033 nM |
